Target: LFA-1 binding to immobilized ICAM-1 (Homo sapiens, UniProt P05107+P20701)
Test: LFA-1/ICAM-1 Protein-Protein Assay (solid-phase ELISA)
Conditions: read-out: LFA-1/ICAM-1 Protein-Protein Assay IC50; 5dICAM-Ig coated plates; membrane-bound LFA-1 from transfected 293 cells
Method: LFA-1/ICAM-1 Protein-Protein Assay
LFA-1/ICAM-1 antagonist activity, defined as the ability to block LFA-1 binding to immobilized ICAM-1, was quantitated using a solid-phase ELISA. Typically, fusion protein consisting of the entire extracellular domain of human ICAM-1 and the Fc domain of human IgG (5dICAM-Ig) was coated onto 96-well microtiter plates (0.15 μg in 100 μL PBS) overnight at 4° C. The plates were then blocked with 150 μL of 1% BSA/1 mM MnCl2/0.14 M NaCl/20 mM HEPES, pH 7.2 for 1 h at 37° C. and washed 3 times (150 μL each) with Wash Buffer (50 mM Tris, pH 7.4/100 mM NaCl/1 mM MnCl2/0.05% Tween 20). Stock solutions (100 μM in 100% DMSO) of test compounds were diluted 50 fold with 150 μL of Binding Buffer (0.05% BSA/0.05% Tween 20/1 mM MnCl2/0.14 M NaCl/20 mM HEPES, pH 7.2) plus 10% DMSO. A series of 1:4 dilutions were performed to achieve a concentration range of 0.12 nM-2 μM. Fifty μL per well of each dilution was added to the ICAM-1 coated plates, followed by 50 μL per well of membrane-bound LFA-1 (280 ng/mL in Binding Buffer) derived from transfected 293 cells. The plates were shaken vigorously for 1 min (room temperature) and gently for 2 h (37° C.). After incubation, the plates were washed 3 times (150 μL each) with Wash Buffer. […] The plates were then read at 450 nm.

The chains behind the UniProt entries cited, without tags or fusion partners. Residues count along the entry.
UniProt P05107, 23-769 limits assumed: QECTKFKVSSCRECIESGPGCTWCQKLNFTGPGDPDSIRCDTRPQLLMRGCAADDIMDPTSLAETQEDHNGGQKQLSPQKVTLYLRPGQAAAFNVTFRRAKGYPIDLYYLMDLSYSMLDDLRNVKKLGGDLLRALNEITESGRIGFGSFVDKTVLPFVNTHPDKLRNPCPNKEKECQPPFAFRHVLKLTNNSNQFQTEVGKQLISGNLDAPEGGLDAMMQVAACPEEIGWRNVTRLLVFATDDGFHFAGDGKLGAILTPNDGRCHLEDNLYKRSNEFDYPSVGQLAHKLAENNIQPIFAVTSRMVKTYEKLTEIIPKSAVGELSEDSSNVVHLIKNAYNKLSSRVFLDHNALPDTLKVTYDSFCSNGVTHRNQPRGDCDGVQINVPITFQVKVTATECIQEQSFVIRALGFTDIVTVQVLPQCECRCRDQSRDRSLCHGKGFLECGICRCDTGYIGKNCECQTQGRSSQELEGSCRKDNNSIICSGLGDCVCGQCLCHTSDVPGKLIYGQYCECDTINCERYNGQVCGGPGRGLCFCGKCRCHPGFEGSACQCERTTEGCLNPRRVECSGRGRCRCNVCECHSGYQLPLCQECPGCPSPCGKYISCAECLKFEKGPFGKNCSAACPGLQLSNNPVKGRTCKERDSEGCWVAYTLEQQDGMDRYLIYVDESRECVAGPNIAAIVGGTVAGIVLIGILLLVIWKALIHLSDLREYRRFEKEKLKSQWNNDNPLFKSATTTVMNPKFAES
UniProt P20701, 26-1170 limits assumed: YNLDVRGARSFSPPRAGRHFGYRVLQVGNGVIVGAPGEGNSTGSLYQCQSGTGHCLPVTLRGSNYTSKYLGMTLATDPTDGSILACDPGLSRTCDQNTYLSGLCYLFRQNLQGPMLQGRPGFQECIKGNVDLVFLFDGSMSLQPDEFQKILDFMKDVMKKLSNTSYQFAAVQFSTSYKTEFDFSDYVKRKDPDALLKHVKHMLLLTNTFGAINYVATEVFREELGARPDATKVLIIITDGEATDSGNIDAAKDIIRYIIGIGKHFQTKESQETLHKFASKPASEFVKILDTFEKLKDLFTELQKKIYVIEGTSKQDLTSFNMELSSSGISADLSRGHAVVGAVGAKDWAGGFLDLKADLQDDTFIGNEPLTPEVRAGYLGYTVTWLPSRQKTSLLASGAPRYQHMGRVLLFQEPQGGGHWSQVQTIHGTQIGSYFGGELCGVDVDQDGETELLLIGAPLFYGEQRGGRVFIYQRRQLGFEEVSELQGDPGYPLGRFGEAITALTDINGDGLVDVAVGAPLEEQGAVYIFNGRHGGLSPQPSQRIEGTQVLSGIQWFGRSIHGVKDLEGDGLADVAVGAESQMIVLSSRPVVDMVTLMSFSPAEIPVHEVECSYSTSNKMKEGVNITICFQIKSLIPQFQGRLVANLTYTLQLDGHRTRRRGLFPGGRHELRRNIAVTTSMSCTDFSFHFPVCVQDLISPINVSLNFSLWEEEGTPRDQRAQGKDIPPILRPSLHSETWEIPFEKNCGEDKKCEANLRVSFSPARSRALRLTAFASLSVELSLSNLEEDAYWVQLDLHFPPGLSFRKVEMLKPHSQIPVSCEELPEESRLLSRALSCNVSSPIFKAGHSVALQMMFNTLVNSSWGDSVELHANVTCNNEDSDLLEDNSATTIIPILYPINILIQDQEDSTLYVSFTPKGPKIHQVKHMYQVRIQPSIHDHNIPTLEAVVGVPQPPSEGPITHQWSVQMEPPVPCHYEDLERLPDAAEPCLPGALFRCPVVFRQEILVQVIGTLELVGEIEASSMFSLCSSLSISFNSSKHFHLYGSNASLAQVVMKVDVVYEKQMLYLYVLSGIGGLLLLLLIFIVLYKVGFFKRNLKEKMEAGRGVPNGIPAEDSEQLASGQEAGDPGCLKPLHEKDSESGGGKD

IC50: 0.0417 µM
SMILES: O=C(O)/C(=C/c1cnc2ccccc2c1)NC(=O)c1ccc(C(=O)NCc2ccc3cc[nH]c3c2)cc1Br
